Reported water solubility values for industrial, environmental and drug-like chemicals

Values as listed in the OPERA 2.9 repository of K. Mansouri.

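These are experimental values that the OPERA curators gathered from public databases to train and test their QSAR models. A listed value is a point estimate from one report or more. Method and conditions are not stated for these values. Where a salt, mixture or single isomer is drawn, the source does not say that exactly this form was tested. Unmarked limits or estimates from the upstream databases cannot be ruled out.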

Solubility in water is on a log10 molar scale (set defined at 25 °C).
"n/a" marks a cell with nothing listed here.

compound,name,water solubility (log10 mol/L)
NC(=O)C(=O)N(CCO)/N=C/C=C/c1ccc([N+](=O)[O-])o1,n/a,-3.403
CC(C)CC1CC(C)(O)CCO1 (stereo not drawn),2-Isobutyl-4-methyltetrahydropyran-4-ol,-0.789
Oc1nc(O)c2nc(Cl)[nH]c2n1,"8-Chloro-9H-purine-2,6-diol",-3.048
COc1ccc(C(=O)O)cc1,4-Anisic acid,-2.69
N#Cc1ccccc1N=C(O)c1snc(Cl)c1Cl,Isotianil,-5.775
CNc1ccc(C(O)(c2ccc(N(C)C)cc2)c2ccc(N(C)C)cc2)cc1,"4,4'-Bis(dimethylamino)-4''-(methylamino)trityl alcohol",-3.509
C=CC(C)CCC=C(C)CCC=O (stereo not drawn),"4,8-Dimethyl-4,9-decadienal",-3.794
COc1cc(CO)ccc1O,Vanillyl alcohol,-1.887
Cc1c(Cc2c(C)n(C)n(-c3ccccc3)c2=O)c(=O)n(-c2ccccc2)n1C,n/a,-2.951
CCCCC(CC)COC(=O)c1ccc([N+](=O)[O-])cc1 (stereo not drawn),2-Ethylhexyl 4-nitrobenzoate,-5.3
CC(=O)OCCN(CCC#N)c1ccc(N=Nc2ccc([N+](=O)[O-])cc2)cc1,C.I. Disperse Orange 31,-4.28
CC1CCCCCCCCCCCCC(=O)C1 (stereo not drawn),3-Methylcyclopentadecan-1-one,-5.744
C=C[Si](C)(C)O[Si](C)(C)C=C,Divinyltetramethyldisiloxane,-5.954
O=C(O)Cc1ccccc1O,2-Hydroxyphenylacetic acid,-0.539
CCCCCCCCCCCC(=O)OCCCCCCCC,"Dodecanoic acid, octyl ester",-8.826
CO[C@H]1C[C@H](O[C@H]2[C@H](C)[C@@H](O[C@@H]3O[C@H](C)C[C@H](N(C)C)[C@H]3OC(C)=O)[C@@H](C)C[C@]3(CO3)C(=O)[C@H](C)[C@@H](OC(C)=O)[C@@H](C)[C@@H](C)OC(=O)[C@@H]2C)O[C@@H](C)[C@@H]1OC(C)=O,Troleandomycin,-4.627
C=C1[C@H]2CC[C@@H]3[C@H]2C(C)(C)CCC[C@]13C,Longifolene,-4.413
OCC1COC(Cn2ccnc2)(c2ccc(Cl)cc2Cl)O1 (stereo not drawn),n/a,-3.359
COc1c(N2CCNC(C)C2)c(F)cc2c(=O)c(C(=O)O)cn(C3CC3)c12 (stereo not drawn),Gatifloxacin,-2.774
COc1cc(C(=O)CO)ccc1O,"Acetophenone, 2,4'-dihydroxy-3'-methoxy-",-1.783
O=C(Oc1ccccc1)c1ccccc1,Phenyl benzoate,-3.719
CC1(C2CCC3C4=CC=C5CC6(CCC5(C)C4CCC32C)OCCO6)OCCO1 (stereo not drawn),n/a,-6.7
CN(C(=O)N(C)c1ccccc1)c1ccccc1,"1,3-Dimethyl-1,3-diphenylurea",-3.498
CC1CCCC(C)N1C(=O)COC(=O)c1ccccc1 (stereo not drawn),"2-(2,6-Dimethylpiperidin-1-yl)-2-oxoethyl benzoate",-3.26
CCCC(=O)OCC(O)COC(=O)CCC,"1,3-Dibutyrin",-1.822
CCCCCCCCCCCCC1CC(=O)N(C2CC(C)(C)NC(C)(C)C2)C1=O (stereo not drawn),n/a,-4.81
CC1(C)C(=O)NC(=O)N1CN1C(=O)NC(=O)C1(C)C,"1,1'-methylenebis(5,5-dimethylimidazolidine-2,4-dione)",-1.73
CCCCCCCCCCCCSCCC(=O)OCC(COC(=O)CCSCCCCCCCCCCCC)(COC(=O)CCSCCCCCCCCCCCC)COC(=O)CCSCCCCCCCCCCCC,n/a,-7.667
CCCCCCCCCCCC(=O)N[C@@H](CCC(=O)O)C(=O)[O-].[Na+],"L-Glutamic acid, N-(1-oxododecyl)-, sodium salt (1:1)",-2.5
OCCN(CCO)c1nc(N2CCCCC2)c2nc(N(CCO)CCO)nc(N3CCCCC3)c2n1,Dipyridamole,-2.738
CC(=O)c1ccc(Oc2ccc(Cl)cc2)cc1C(F)(F)F,n/a,-5.288
CC(O)(CCC(C)(O)C(=O)O)C(=O)O (stereo not drawn),"2,5-Dihydroxy-2,5-dimethyl-adipic acid",-0.972
Oc1ccnc2ccccc12,4-Hydroxyquinoline,-1.481
CN(C)C(=O)c1ccccc1O[C@@H]1OC[C@H](O)[C@H](O)[C@H]1O,"o-(alpha-L-arabinopyranosyloxy)-N,N-dimethylbenzamide",-0.871
Cc1cc(/N=N/c2c(O)c(C(=O)[O-])cc3ccccc23)c(S(=O)(=O)[O-])cc1Cl.[Sr+2],n/a,-7.528
Cc1ccc(/N=N/c2c(O)c(C(=O)[O-])cc3ccccc23)c(S(=O)(=O)[O-])c1.[Ca+2],"C.I. Pigment Red 57, calcium salt (1:1)",-4.678
O=Nc1ccc(N=O)cc1,"Benzene, 1,4-dinitroso-",-1.67

3 of these entries, quoted again:

compound,name,water solubility (log10 mol/L)
COc1cc(CO)ccc1O,Vanillyl alcohol,-1.887
O=Nc1ccc(N=O)cc1,"Benzene, 1,4-dinitroso-",-1.67
CN(C)C(=O)c1ccccc1O[C@@H]1OC[C@H](O)[C@H](O)[C@H]1O,"o-(alpha-L-arabinopyranosyloxy)-N,N-dimethylbenzamide",-0.871